Test results published in publication PMC7310041.

Amino acid sequences for entries named in this document (tags omitted).
UniProt P68363, whole entry, chain 1 of 2: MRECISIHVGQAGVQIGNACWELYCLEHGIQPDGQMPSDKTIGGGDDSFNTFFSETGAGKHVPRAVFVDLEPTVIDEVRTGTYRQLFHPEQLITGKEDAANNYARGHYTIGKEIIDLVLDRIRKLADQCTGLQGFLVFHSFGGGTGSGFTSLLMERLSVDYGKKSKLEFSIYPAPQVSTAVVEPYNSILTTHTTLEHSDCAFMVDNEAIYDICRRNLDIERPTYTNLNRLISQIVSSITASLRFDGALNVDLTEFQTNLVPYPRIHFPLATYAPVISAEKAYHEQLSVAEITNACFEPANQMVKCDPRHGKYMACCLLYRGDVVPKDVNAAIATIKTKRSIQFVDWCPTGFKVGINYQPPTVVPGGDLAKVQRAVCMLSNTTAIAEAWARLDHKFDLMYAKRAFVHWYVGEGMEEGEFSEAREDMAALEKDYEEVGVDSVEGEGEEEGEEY

Target: microtubules (paclitaxel-stabilised polymerised tubulin) (human (endogenous in HEK293T)) (UniProt P68363)
Assay: co-sedimentation; cell-based MT binding assay: lysate of transfected HEK293T cells in PEM buffer (80 mM PIPES pH 6.8, 1 mM EGTA, 1 mM MgCl2) with 0.1% Triton X-100, 2 mM GTP, 20 uM paclitaxel; 37 °C 30 min; 100,000 g 30 min; tau in supernatant and pellet by Western blot; percent MT-bound = pellet/(supernatant+pellet)*100

Substance: 2N4R human WT tau (from UniProt P10636-8 1-441) (natural protein)
- percent of tau bound to MTs: 30%
